# Measurements from patent US20030073837A1, “3-HETEROARYLIDENYL-2-INDOLINONE COMPOUNDS FOR MODULATING PROTEIN KINASE ACTIVITY AND FOR USE IN CANCER CHEMOTHERAPY” (priority 1998, published 2003).
# Experiment: Phase 1 study pharmacokinetics in patients with advanced malignancies
# Conditions: doses 4.4-190 mg/m^2
smiles,measurement,value
"Cc1cc(C)c(/C=C2\C(=O)Nc3ccccc32)[nH]1 [3-[(2,4-dimethylpyrrol-5-yl)methylidenyl]-2-indolinone]","clearance from the systemic circulation, mean",1857±1016 liters of plasma per day
